Reference: patent publication US11660289B2 (Small Pharma Ltd, priority 2020, dated 2023)

Test: Human liver mitochondrial fraction intrinsic clearance
Assay type: in vitro ADME
Conditions: 0.5 mg/mL human liver mitochondrial fraction
Procedure: Human Liver Mitochondrial (HLMt) fractions contain high quantities of MAO enzymes and therefore, provide a useful model system to measure the clearance of MAO substrates.
A series of investigations using HLMts were conducted to assess the effect of MAO on the metabolism of DMT and deuterated DMT analogues in vitro.

Structure (SMILES): [2H]C([2H])([2H])N(C([2H])([2H])[2H])C([2H])([2H])Cc1c[nH]c2ccccc12 [SPL028viii, α,α,bis-deuterio-N,N-hexadeuterio-dimethyltryptamine]
- Half-life: 2.128 h
